# The entries are a selection whose mix differs from that of the whole data set. Calls of active or inactive are those of the source.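 Rule for the calls: active = activity change of -60% or lower, but not beyond a set lower limit; inconclusive = change between -60% and -40%, or beyond the set limit; inactive = change above -40%.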
# By UniProt entry, the sequences of proteins in these tests, tags left out.
# UniProt Q9HBX9, whole entry: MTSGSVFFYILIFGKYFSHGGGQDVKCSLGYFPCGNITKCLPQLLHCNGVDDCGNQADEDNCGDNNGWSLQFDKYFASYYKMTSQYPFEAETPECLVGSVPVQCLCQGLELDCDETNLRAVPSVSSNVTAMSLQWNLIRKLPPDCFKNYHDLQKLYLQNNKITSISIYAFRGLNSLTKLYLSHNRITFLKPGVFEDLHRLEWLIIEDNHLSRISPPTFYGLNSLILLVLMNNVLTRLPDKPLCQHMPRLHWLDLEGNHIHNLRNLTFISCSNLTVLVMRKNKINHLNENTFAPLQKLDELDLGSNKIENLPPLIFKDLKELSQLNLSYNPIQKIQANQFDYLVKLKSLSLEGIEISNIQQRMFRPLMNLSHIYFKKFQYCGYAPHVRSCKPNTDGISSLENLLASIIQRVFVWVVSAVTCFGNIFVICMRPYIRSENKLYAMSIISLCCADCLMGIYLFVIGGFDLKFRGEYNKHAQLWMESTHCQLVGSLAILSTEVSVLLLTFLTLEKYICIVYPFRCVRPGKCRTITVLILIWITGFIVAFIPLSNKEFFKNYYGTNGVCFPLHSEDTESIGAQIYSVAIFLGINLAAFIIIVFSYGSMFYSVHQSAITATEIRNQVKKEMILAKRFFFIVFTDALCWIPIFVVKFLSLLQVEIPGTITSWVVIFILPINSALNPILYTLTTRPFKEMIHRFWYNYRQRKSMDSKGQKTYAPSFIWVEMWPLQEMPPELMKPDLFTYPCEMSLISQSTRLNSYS
# Biological target: Relaxin receptor 1 (Homo sapiens) (UniProt Q9HBX9)
# Experiment: qHTS Assay for Antagonists of the Relaxin Receptor RXFP1
# Details: HEK293-RXFP1, relaxin-stimulated cAMP HTRF, 30 min; at 57.5 µM; stronger effect = lower value
# Source text: The relaxin hormone is involved in the variety of biological functions in normal tissues and diseases. The role of relaxin is well-established in female reproduction and parturition, mammary gland and endometrial development, maintenance of myometrial quiescence during pregnancy. Relaxin signaling through its G protein-coupled receptor (GPCR) RXFP1 results in ECM remodeling through regulation of collagen deposition, cell invasiveness, proliferation and overall tissue homeostasis. […] Recombinant human relaxin (rhRlx) is currently being tested in clinical trials as a protective agent in congestive heart failure, in treating severe preeclampsia, and as an anti-fibrotic agent in various organs. […] Upon relaxin binding RXFP1 activation leads to the activation of adenylate cyclase (AC) via G?s. cAMP will activate PKA, which phosphorylates many signaling proteins. Thus, detection of cAMP increase is an easy and reliable indication of relaxin receptor activation. To screen for antagonists of the relaxin receptor, a HEK293T cell line stably transfected with RXFP1 was used. RXFP1 activation by relaxin in presence of various concentrations of tested compounds was assayed by changes in cAMP levels as detected with a time-resolved fluorescence energy transfer (TR-FRET) cAMP detection kit.
# For the primary screening, we used HTRF(R) (Homogenous Time-Resolved Fluorescence) cAMP HiRange assay (Cisbio Bioassays, 62AM6PEJ). Presence of cAMP in the cell lysate disrupts binding between the Cryptate-labeled anti-cAMP and d2-labeled cAMP pair, leading to a decrease in TR-FRET signal. The libraries were screened at two doses (57microM and 11microM), followed by a confirmation of the hits at 7-point serial dilution in the range of final concentrations [57microM - 78nM]. Data were normalized to the controls for basal activity (buffer only) and 100% activity (5 nM porcine relaxin). The EC50 values were determined from concentration-response data modeled with the standard Hill equation. NCGC Assay Protocol Summary: HiHEK (Hawaiian HEK293 LGR7 stably transfected with human RXFP1) were grown in the following media: DMEM+10%FBS+Pen/Strep + Geneticin (1mg/ml). For the assay, the cells were seeded in DMEM+Pen/Strep (with no serum & selective antibiotics) at 2,100 cells/ 3microl/well with MultiDrop Combi dispenser (Thermo Scientific, Logan, UT) onto white tissue culture treated solid bottom1536-well plates (Greiner #789173-F) and allowed to attach/recover overnight at 37 degrees C, 5% CO2. Next, 23nl/well of compound solutions in DMSO were transferred into wells with a pintool (Kalypsis, San Diego, CA). […] EC80 (relaxin at 50pM final concentration) was dispensed to the rest of the plate except columns 1&2 which were used as a negative control (EC0, buffer only), 1microl/well also. The cells were stimulated by relaxin in the presence of compounds for 30 minutes at 37 degrees C, 5% CO2. The detection reagents were prepared individually by dilution in Lysis buffer (supplied with the assay kit) just prior to dispensing. 1microl/well of cAMP-d2 and 1microl/well anti-cAMP-Eu3+-Cryptate antibodies were added simultaneously with BioRAPTR FRDtrade mark Workstation (Beckman Coulter). The plates were incubated at ambient temperature for 30 minutes and, then, FRET signal was read on Envision plate reader (PerkinElmer, Waltham, MA), at wavelengths 340nm (excitation), 615nm & 665nm (emission of donor and acceptor channels respectively).
row,Structure (SMILES),"activity change, negative = inhibition"
1,CCOP(C)(=S)SCC(=O)NC(C)(CC)C(=O)O (configuration not stated),inactive: -11.2%
2,CP(=O)(Nc1ccc(SC(F)(F)F)cc1)Oc1ccc(F)cc1 (configuration not stated),inactive: -6.62%
3,C/C1=C2N=C(/C=C3N=C(/C(C)=C4\[N-][C@@](C)([C@@H]5N=C1[C@](C)(CCC(=O)NC[C@@H](C)OP(=O)([O-])O[C@H]1[C@@H](O)[C@@H](n6cnc7cc(C)c(C)cc76)O[C@@H]1CO)[C@H]5CC(N)=O)[C@@](C)(CC(N)=O)[C@@H]4CCC(N)=O)[C@@](C)(CC(N)=O)[C@@H]\3CCC(N)=O)C(C)(C)[C@@H]/2CCC(N)=O.[C-]#N.[Co+3],inactive: 12.8%
4,Cc1ccccc1NP(C)(=O)Nc1ccccc1C,inactive: -13.7%
5,CP(=O)(Nc1ccc2c(c1)OCCO2)Oc1ccccc1 (configuration not stated),inactive: -3.89%
6,CN(C)CCOC(=O)C(O)(c1ccccc1)C1CCCCC1 (configuration not stated),inactive: -15.7%
7,COc1ccc(NP(C)(=O)Oc2ccccc2OC)cc1 (configuration not stated),inactive: -7.16%
8,COc1ccc(OP(C)(=O)Nc2cccc(Br)c2)cc1 (configuration not stated),inactive: 0.0664%
9,Cc1c(C(c2ccc3c(c2)OCO3)c2c(C)n(C)n(-c3ccccc3)c2=O)c(=O)n(-c2ccccc2)n1C.O=[N+]([O-])c1cc([N+](=O)[O-])c(O)c([N+](=O)[O-])c1,inactive: -0.866%
10,O=[N+]([O-])c1ccc(OP2(=O)COCCO2)cc1 (configuration not stated),inactive: -14%
11,Cc1cc(-c2cccc3ccccc23)c(C)cn1.O=[N+]([O-])c1cc([N+](=O)[O-])c(O)c([N+](=O)[O-])c1,inactive: -36.9%
12,CCOC(=O)c1ccc(NP(C)(=O)Oc2ccc(F)cc2)cc1 (configuration not stated),inactive: -10.3%
13,COc1ccc(OP(C)(=O)Nc2ccc(SC(F)(F)F)cc2)cc1 (configuration not stated),inactive: -33.9%
14,Cc1cccc([N+](=O)[O-])c1[N+](=O)[O-],inactive: 21.3%
15,CP(=O)(Nc1ccccc1)Oc1ccc(F)cc1 (configuration not stated),inactive: -20.7%
16,Cc1c([N+](=O)[O-])cc([N+](=O)[O-])c(Br)c1[N+](=O)[O-],inactive: -17.1%
17,CCN(CC)CCCOC(=O)C(O)(c1ccccc1)C1CCCCC1 (configuration not stated),inactive: -8.14%
18,CP(=O)(Nc1ccccc1F)Oc1ccccc1 (configuration not stated),inactive: -24.2%
19,CCOP(=O)(CC)Oc1ccc([N+](=O)[O-])cc1 (configuration not stated),inactive: 4.75%

row,Structure (SMILES),"activity change, negative = inhibition"
1,O=C(OCCN1CCN(CCOCc2ccccc2)CC1)C(O)(c1ccccc1)c1ccccc1,inactive: -10.6%
2,COc1ccc(OP(C)(=O)Nc2ccccn2)cc1 (configuration not stated),inactive: -12.5%
3,CN(C)CCOC(=O)C(O)(c1ccccc1)C1CCCC1 (configuration not stated),inactive: 3.84%
4,COc1ccccc1OP(C)(=O)Nc1ccc(Br)cc1 (configuration not stated),inactive: -2.66%
5,CP(=O)(Nc1ccccn1)Oc1ccccc1 (configuration not stated),inactive: 9.7%
6,COc1ccccc1OP(C)(=O)Nc1ccc(C)cc1C (configuration not stated),inactive: 11%
7,CCc1ccc(OP(C)(=O)O)cc1,inactive: 2.48%
8,Cc1c(NP(C)(=O)Oc2ccc(C(C)C)cc2)c(=O)n(-c2ccccc2)n1C (configuration not stated),inactive: -2.49%
9,O=[N+]([O-])c1cc([N+](=O)[O-])c(Nc2ccccn2)c([N+](=O)[O-])c1,inactive: -2.9%
10,COc1ccccc1OP(C)(=O)Nc1ccc(C)c(C)c1 (configuration not stated),inactive: -19.4%
11,COc1ccc(OP(C)(=O)Nc2ccccc2Br)cc1 (configuration not stated),inactive: -6.24%
12,Cc1cc(C)cc(OP(C)(=O)Nc2cccc(C(F)(F)F)c2)c1 (configuration not stated),inactive: -29.6%
13,CCCCCCCCCCCCCCCC1C[N+](C)(C)CCOP(C)(=O)O1 (configuration not stated),inactive: -15.4%
14,CP(=O)(Nc1ccc(Cl)cc1Cl)Oc1ccccc1 (configuration not stated),inactive: -15.6%
15,CP(=O)(OCCOc1ccccc1)OCCOc1ccccc1,inactive: 6.96%
16,CP(=O)(OC12CC3CC(CC(C3)C1)C2)OC12CC3CC(CC(C3)C1)C2,inactive: 16.4%
17,Nc1ccc2c(ccc3cccnc32)n1.O=[N+]([O-])c1cc([N+](=O)[O-])c(O)c([N+](=O)[O-])c1,inactive: 7.73%
18,COc1ccccc1OP(C)(=O)Nc1c(C)n(C)n(-c2ccccc2)c1=O (configuration not stated),inactive: 14.6%
19,O=C(OCCCN1CCCC1)C(O)(c1ccccc1)C1CCCCC1 (configuration not stated),inactive: -2.77%

row,Structure (SMILES),"activity change, negative = inhibition"
1,OCCSCCO,inactive: -7.83%
2,CP(=O)(Oc1ccccc1)N1CCOC1=O (configuration not stated),inactive: -3.24%
3,CCc1ccc(OP(C)(=O)Nc2cccnc2)cc1 (configuration not stated),inactive: -9.66%
4,CCN(CC)CC(O)COC(=O)C(O)(c1ccccc1)C1CCCCC1 (configuration not stated),inactive: -6.69%
5,COc1ccc(OP(C)(=O)Nc2ccc(Br)cc2)cc1 (configuration not stated),inactive: -5.66%
6,CN(C)C(=O)c1c([N+](=O)[O-])cc([N+](=O)[O-])cc1[N+](=O)[O-],inactive: 5.47%
7,COc1ccccc1OP(C)(=O)Nc1ccccc1Br (configuration not stated),inactive: -20.2%
8,CC(C)(C)c1ccc(OP(C)(=O)O)cc1,inactive: 4.14%
9,CP(=O)(Nc1ccc(Cl)cc1)Oc1ccc(F)cc1 (configuration not stated),inactive: -6.04%
10,CP(=O)(NC(=O)Nc1ccccc1)Oc1ccccc1 (configuration not stated),inactive: -2.08%
11,CCc1ccc(OP(C)(=O)N2CCN(c3ccc([N+](=O)[O-])cc3)CC2)cc1 (configuration not stated),inactive: -10.8%
12,Cc1cc(C)cc(OP(C)(=O)Nc2ccc(SC(F)(F)F)cc2)c1 (configuration not stated),inactive: -23.5%
13,CP(=O)(Nc1ccc(SC(F)(F)F)cc1)Oc1ccc(Cl)cc1 (configuration not stated),inactive: -15%
14,Cc1cccc(C)c1OP(C)(=O)Nc1ccc(SC(F)(F)F)cc1 (configuration not stated),inactive: -14.1%
15,CP(=O)(Oc1ccccc1)OC(c1ccccc1)C(F)(F)F (configuration not stated),inactive: 2.48%
16,CP(=O)(Nc1ccccn1)Oc1ccc(Cl)cc1 (configuration not stated),inactive: -1.38%
17,O=[N+]([O-])c1cc([N+](=O)[O-])c(O)c([N+](=O)[O-])c1.c1ccc(Oc2ccncc2)cc1,inactive: -12.7%
18,CCOC(=O)c1ccc(NP(C)(=O)Oc2ccc(OC)cc2)cc1 (configuration not stated),inactive: -5.5%
19,CCOP(C)(=S)SCC(=O)NC(C)C(=O)O (configuration not stated),inactive: -10.8%

# — PubChem BioAssay AID1259400 (National Center for Advancing Translational Sciences (NCATS), 2018)
